Results published in patent US20240293551A1, “USE OF ST-TYPE LIPID COMPOUNDS IN PREPARATION OF NUCLEIC ACID DELIVERY REAGENT AND RELATED PRODUCT” (INSTITUTE OF BASIC MEDICAL SCIENCES CHINESE ACADEMY OF …, priority 2021, published 2024).

Tested on: PGY-sRNA-26
Experiment: In vivo delivery study of lipid-nucleic acid mixture (oral gavage, RT-qPCR of PGY-sRNA-26 in tissues)
Set-up: species or system mouse
Details: C57BL/6 mice, 100 μg lipid: 10 nmol PGY-sRNA-26, 12 hours; for oral delivery of single-stranded sRNA nucleic acids into mouse intestinal tissue: intestine
Method: 10 nmol of small RNA (as shown in Table 2) was dissolved in 400 μl of DEPC-treated water in a glass tube, 10 μl of the corresponding lipid stock solution was added such that the lipid mass in the system was 100 μg. The mixture was mixed thoroughly, heated in a 90° C. water bath for 15 minutes, and then cooled naturally to obtain the lipid nucleic acid mixture of lipid and small RNA.
C57BL/6 male mice, approximately 6 weeks old, weighing 20-24 g, were obtained from Beijing Vital River Laboratory Animal Technology Co., Ltd. The mice were housed in the SPF-grade animal facility at the Animal Center of the Institute of Basic Medical Sciences, Chinese Academy of Medical Sciences. The mice were fasted for 12 hours before gavage administration.
The resultant lipid nucleic acid mixture was orally administered to each mouse at a dose of 100 μg lipid: 10 nmol single-stranded 3′-methylated small RNA PGY-sRNA-26.
• 1) Blank group (n=4): mice were administered with 500 μl saline by gavage, this group served as a blank control; • 2) Free uptake group (n=4): mice were directly administered with small RNA PGY-sRNA-26 solution (10 nmol/mouse, 500 μl) by gavage, this group served as a negative control; • 3) Lipid-treated group (n=4): mice were administered with 500 μl lipid nucleic acid mixture prepared in step 2 by gavage.
After 12 hours of gavage administration, 500 μl blood from the eyeball of each mouse was sampled, added to 1.5 ml Trizol Reagent LS (purchased from Invitrogen), thoroughly mixed for lysis. 3 ml of Trizol Reagent LSwas added to tissue samples and homogenized for complete lysis, wherein the sampled tissues include heart, liver, spleen, lung, kidney, stomach, intestine, brain, blood, femur. RNA was extracted from 1 ml of the blood or the tissue lysate following the steps below: • Centrifuge at 4° C., 12,000 rpm for 5 min, discard the precipitate, transfer Trizol to a new centrifuge tube; • Add chloroform at 200 μL chloroform/mL Trizol, shake well, stand at room temperature for 5 min; • Centrifuge at 4° C., 12,000 rpm for 15 min; • Take the upper aqueous phase to another centrifuge tube, add isopropanol at 0.4 mL isopropanol/mL Trizol, mix well, and stand at low temperature for 10-20 min; • Centrifuge at 4° C., 12,000 rpm for 15 min, discard the supernatant, RNA precipitated at the bottom of the tube; • Add 1 mL of 75% ethanol, gently shake the centrifuge tube, suspend the precipitate; • Centrifuge at 4° C., 12,000 rpm for 15 min, discard the supernatant, add 1 mL of 75% ethanol, gently shake the centrifuge tube, suspend the precipitate; • Centrifuge at 4° C., 12,000 rpm for 15 min, discard the supernatant, air-dry at room temperature, dissolve RNA samples in 50 μL RNase-free H2O, measure OD value to quantify RNA concentration. 3.3 Reverse Transcription of sRNA to cDNA:
The reverse transcription system is as follows: Template RNA (200 ng/μL) 10 μL, 10×RT Buffer 2.0 μL, 25×dNTP Mix (100 mM) 0.8 μL, U6 RT stem-loop primer (10 μM) 2.0 μL, PGY-sRNA-26 RT stem-loop primer (10 μM) 2.0 μL, MultiScribe™ Reverse Transcriptase (50 U/μL) 1.0 μL, RNAse Inhibitor (40 U/μL) 1.0 μL, nuclease-free H2O 1.2 μL. After transient centrifugation, the reverse transcription system was placed in a PCR machine with the following reaction conditions: (1) 25° C., 10 min; (2) 37° C., 120 min; (3) 85° C., 5 min; (4) 4° C., stop reaction. After the reaction, add 20 μL RNAse-free ddH2O, adjust the final volume to 40 μL. The stem-loop primers used in this reverse transcription process were synthesized by Beijing Tianyi Huiyuan Biotechnology Co., Ltd. (U6 was used as a standard reference gene to calculate its relative expression, because U6 RT primer was used as a reference gene in relative quantification of RT-qPCR reactions for small RNA): […]

C[C@]12CC[C@H]3[C@@H](CCC4=CC(=O)CC[C@@]43C)[C@@H]1CC[C@@H]2O [Lipid 579]
can effectively orally deliver: oral delivery of single-stranded sRNA nucleic acids into mouse heart tissue | oral delivery of single-stranded sRNA nucleic acids into mouse intestinal tissue | oral delivery of single-stranded sRNA nucleic acids into mouse kidney tissue | oral delivery of single-stranded sRNA nucleic acids into mouse liver tissue | oral delivery of single-stranded sRNA nucleic acids into mouse lung tissue | oral delivery of single-stranded sRNA nucleic acids into mouse spleen tissue | oral delivery of single-stranded sRNA nucleic acids into mouse stomach tissue

C[C@]12CC[C@H](O)CC1=CC[C@@H]1[C@@H]2CC[C@]2(C)C(=O)CC[C@@H]12 [Lipid 561]
can effectively orally deliver: oral delivery of single-stranded sRNA nucleic acids into mouse heart tissue | oral delivery of single-stranded sRNA nucleic acids into mouse intestinal tissue | oral delivery of single-stranded sRNA nucleic acids into mouse kidney tissue | oral delivery of single-stranded sRNA nucleic acids into mouse liver tissue | oral delivery of single-stranded sRNA nucleic acids into mouse lung tissue | oral delivery of single-stranded sRNA nucleic acids into mouse spleen tissue | oral delivery of single-stranded sRNA nucleic acids into mouse stomach tissue
